scFv variants of Ab-14 (heavy chain) against a SARS-CoV-2 spike peptide

Target: peptide PDVDLGDISGINAS, taken from heptad repeat 2 (HR2) of SARS-CoV-2 spike.

The variants keep the light chain, the linker and the frameworks of Ab-14 (scFv order VH, a (GGGGS)3 linker, VL).
VH: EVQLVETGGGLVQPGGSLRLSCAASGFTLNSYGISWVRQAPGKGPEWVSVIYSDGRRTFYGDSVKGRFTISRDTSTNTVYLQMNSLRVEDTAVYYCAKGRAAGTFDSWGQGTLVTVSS
VL: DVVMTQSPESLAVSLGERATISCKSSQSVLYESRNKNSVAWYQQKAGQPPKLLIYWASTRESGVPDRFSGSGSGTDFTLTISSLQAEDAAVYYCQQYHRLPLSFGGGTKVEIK

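The starting antibody came from a phage panning campaign against this peptide. Designed CDR sequences, proposed from the first random library and measured here. Group labels follow the data file (Ctrl: baseline library sampled from a position-specific scoring matrix, with some repeated check sequences; Rand: our label for a block that the file lists under HC and that is probably the random mutants of the ten best first-round binders; En: ensemble of fine-tuned language models; GP: Gaussian process model; GPLM: also part of the Gaussian process libraries; HC: hill climbing; Gen: genetic algorithm; Gibbs: Gibbs sampling; a sequence that several methods proposed may carry one label only). In AlphaSeq, yeast of one mating type display the scFv and yeast of the other type display the target. Mating (16 h, 30 °C) was followed by selection of diploids and sequencing of their barcodes. Each replicate has its own calibration line, from reference interactions of the BCL2 family. The assay was run in six technical replicates.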

Variants are written as CDR1, CDR2 and CDR3 of the heavy chain (limits as in the source). Parent: GFTLNSYGIS, VIYSDGRRTFYGDSVK, GRAAGTFDS.
Kd is apparent (estimated from mating counts) and averaged on the log scale over replicates with a signal. Smaller is tighter.
An entry "no signal" has no value in the source: the pair was not observed among the diploids in any replicate. This suggests poor binding but is not conclusive.

CDR-H1,CDR-H2,CDR-H3,group,Kd,seen in
GFSLNQYGIS,VIYSDGRRTAYGDSVK,GRAAGTFDS,GP_Gen,1.5 nM,6/6
GFILDEYGVS,VIYADGIRTQYTNDVK,GLYSGAFVI,En_Gibbs,no signal,0/6
GFDLNEYGIS,VIYADGRRTAYSDSVK,GEVAGTFVS,En_HC,1.9 nM,6/6
GFNLDEYGIS,VIYADGRRTFYADSVK,GQVAGTFDM,En_HC,270 pM,6/6
GFTLNSYGIS,VIYSDGRRTFYGDSVK,SRIAGTFDS,Ctrl,no signal,0/6
GFDLNEYGIS,VIYADGMRTAYTDSVK,GNNAGTFDV,En_Gen,280 pM,6/6
GFDLNSYGIS,VIYSDGRRTFYIDSVK,GRAAGTFDQ,GP_HC,12 nM,6/6
GFDLNEYGIS,VIYADGMRTVYADSVK,GNQAGTFDM,En_Gen,330 pM,6/6
GFTLNSYGIS,VIYSDGRRTFYTDSVK,GEEAGTFDS,Ctrl+GPLM_Gibbs,3.8 nM,12/12
GFTLDSYGIS,VIYSDGRRTFYGDSVK,GQAAGTFDV,GP_HC,6.3 nM,5/6
GFTLNDYGIS,VIYSDGRRTQYSDSVK,GRAAGTFDA,GP_HC,13 nM,6/6
GFTLGSYGIS,VIYSDGRRTFYGDSVK,GRATGTSDS,Ctrl,19 nM,2/6
GFRLNSYGIS,VIYSDGRRTFYDDSVK,GQVAGTFDS,GP_HC,9.7 nM,6/6
GYQLEDYGIS,VIYADGRRTAYAADVK,GQGVVVFAG,En_Gibbs,no signal,0/6
GFDLNEYGIS,VIYADGVRTAYSDNVK,GEVAGTFDL,En_Gen,730 pM,6/6
GFTLNEYPIS,VPYSDGRRTFYGDSVK,GRAAVTFDQ,Rand,no signal,0/6
GFTLNSYKIS,VIYSDGRRTFYDCSVK,GQLAGTFDS,Rand,no signal,0/6
GFTLNEYGIS,VIYSDGRRTFYGDSVK,GRDAGYFDS,Ctrl,7.0 nM,6/6
GFDLNEYGIS,VIYADGMRTFYSDSVK,GNNAGTFDI,En_Gen,220 pM,6/6
GFVLNDYGIS,VIYSDGRRTFYIDTVK,GNAAGTFDS,GP_HC,470 pM,6/6
GFDIDEYGIS,VIYADGRRTFYADSVK,GTNAGTFDI,En_HC,810 pM,6/6
GFDLDEYGIS,VIYADGMRTFYKDSVK,GQNAGTFDQ,En_HC,180 pM,6/6
GFSLDEYGIS,VIYADGLRTQYHNKVK,GLQGGFFDQ,En_Gibbs,no signal,0/6
GFTLESYGIS,VIYSDGRRTFYGDAVK,GWTAGTFDS,GP_Gibbs,18 nM,5/6
GFVLNEYGIS,VIYSDGRRTFYDDSVK,GRTAGTFDS,GP_HC,2.8 nM,6/6
GFTLNSYGIS,VIYSDGRRTFYGQSVK,GQAAGTFDQ,Ctrl,no signal,0/6
GFTLNDYGIS,VIYSDGRRTFYIDSVK,DRAAGTFDS,Ctrl,no signal,0/6
GFSLNMYGIS,VIYSDGRRTFYIDSVK,GRAAGTFDS,GP_HC,72 nM,3/6
GFTLNDYGIP,VIYSDGVRTSYGDSVK,GRAAGTFVS,Ctrl,no signal,0/6
GFTLNSYGIS,VIYADGRRTFYGDSVK,GTAAGTFDS,GPLM_Gen,640 pM,6/6
GFTLNEYGIS,VIYSDGRRTFYIDSVK,GRTAGTFDS,GPLM_Gen,2.1 nM,6/6
GFELQEYGIS,VIYADGMRTAYSDNVK,GDARGIFHM,En_Gibbs,no signal,0/6
GQNLDEYGIS,VIYADGMRKWYADDVK,GNMSAGVIA,En_Gibbs,no signal,0/6
GFDLNEYGIS,VIYADGRRTAYIDSVK,GNTAGTFDV,En_Gen,2.2 nM,6/6
GFDLNEYGIS,VIYADGQRTAYADNVK,GETAGTFDV,En_Gen,3.6 nM,6/6
GFDLNEYGIS,VIYADGMRTFYADSVK,GELAGTFDV,En_HC,1.0 nM,6/6
GFDLDEYGIS,VIYADGQRTAYVDSVK,GEVAGTFDV,En_Gen,no signal,0/6
GFDLNEYGIS,VIYADGMRTFYADSVK,GEVAGTFDM,En_Gen,760 pM,6/6
GFTLNDYGIS,VIYSDGRRTFYDDSVK,GRAAGTFMS,GPLM_HC,no signal,0/6
GFDLNSYGIS,VIYSDGRRTFYTDSVK,GQLAGTFDS,GP_HC,540 pM,6/6
GFTLNEYGIS,VIYSDGRRTFYGDSVK,GRTAGTFIS,GPLM_HC,no signal,0/6
GFTLNSYGIS,VIYSDGRRTAYGDSVK,ARACGTFFS,Ctrl,no signal,0/6
GFDLNEYGIS,VIYADGRRTQYIDSVK,GEIAGTFDE,En_HC,18 nM,4/6
GFTLNSYGIS,VIYSDGRRTFYGDSVK,GRAAKTFDV,Ctrl,no signal,0/6
GFTLNSYGIS,VIYSDGSRTFYDDSVK,GRAAGTFDS,Ctrl,38 nM,1/6
GFTLNSYGIS,VIYSDGRRTFYSDSVK,GKAAGTFDP,GP_HC,14 nM,6/6
GFVLNSYGIS,VIYSDGRRTFYGDSVK,GQAAGTFDS,GPLM_Gen,33 nM,1/6
GFDLEEYGIS,VIYADGKRTAYSDSVK,GNVAGTFDV,En_Gen,240 pM,6/6
GMSLNSYGIS,VIYSDGRRTFYGDSVK,GRTAGTFDS,GPLM_Gen,3.3 nM,5/6
GFELNQYGIS,VIYSDGRRTFYADSVK,GRAAGTFDS,GPLM_HC,5.4 nM,6/6
GFTLNSYGIS,VIYSDGRRTFYGDDVK,GRAIGPFDS,Ctrl,4.2 nM,1/6
GFSLNSYGIS,VIYSDGRRTFYVDSVK,GMLAGTFDS,GP_HC,20 nM,6/6
GFDLDEYGIS,VIYADGKRTFYADSVK,GTNAGTFDA,En_HC,2.7 nM,6/6
GFELNQYGIS,VIYSDGTRTFYSDSVK,GRAAGTFDS,GP_HC,2.8 nM,6/6
GFDLNEYGIS,VIYADGMRTAYADNVK,GHVAGTFDV,En_Gen,380 pM,6/6
GFDLDEYGIS,VIYADGMRTAYSDSVK,GANAGTFDL,En_Gen,210 pM,6/6
GFDLNEYGIS,VIYADGIRTFYTDSVK,GEVAGTFDS,En_HC,530 pM,6/6
GFRLNSYGIS,VIYSDGRRTFYGDSVK,GRAAGCFDS,Ctrl,no signal,0/6
GFTLESYGIS,VIYADGRRTFYGDSVK,GQAAGTFDK,GPLM_Gibbs,2.3 nM,6/6
GFTLNSYGIS,VIYSDGRRTFYGDPVK,GKTAGTFDS,GP_Gibbs,7.5 nM,6/6
GFWLNSYGIS,VIYADGRRTFYGDSVK,GMAAGTFDS,GP_HC,no signal,0/6
GFTLNSYGIS,VIYSDGERTFYADSVK,GQAAGTFDS,GP_HC,6.5 nM,5/6
GFSLNSYGIS,VIYSDGRRTFYADSVK,GREAGIFDS,GPLM_Gen,no signal,0/6
GFMLNSYGIS,VIYSDGRRTFYGDDVK,ERAKGTFDS,Ctrl,no signal,0/6
GFNLDEYGIS,VIYADGQRTAYAKHVK,GTGGMDRGV,En_Gibbs,no signal,0/6
GFDLEKYGIS,VIYADGSRSAYAQDVK,GGHAGGFHV,En_Gibbs,no signal,0/6
MFTLNSYGIS,VIYSDGRRTFYGDSVK,GHEAGTFDT,GP_Gibbs,23 nM,6/6
GFDLNEYGIS,VIYADGRRTAYADDVK,GANAGTFDV,En_Gen,190 pM,6/6
GFNLDEYGIS,VIYADGMRTAYADSVK,GNVAGTFDV,En_Gen,290 pM,6/6
GFTLNSYGIS,VIYSDGRRTFYSDSVK,GRAAGSFDS,Ctrl,63 nM,5/6
GFTLNSYGIS,VIYSDGRRSFYGDSVK,GEAAGTFDS,Ctrl,14 nM,6/6
GFGIDEYGIS,VIYADGRRTFYSDDVK,GNMIVTFVD,En_Gibbs,1.0 nM,6/6

Excerpt, the final 6 entries:

CDR-H1,CDR-H2,CDR-H3,group,Kd,seen in
MFTLNSYGIS,VIYSDGRRTFYGDSVK,GHEAGTFDT,GP_Gibbs,23 nM,6/6
GFDLNEYGIS,VIYADGRRTAYADDVK,GANAGTFDV,En_Gen,190 pM,6/6
GFNLDEYGIS,VIYADGMRTAYADSVK,GNVAGTFDV,En_Gen,290 pM,6/6
GFTLNSYGIS,VIYSDGRRTFYSDSVK,GRAAGSFDS,Ctrl,63 nM,5/6
GFTLNSYGIS,VIYSDGRRSFYGDSVK,GEAAGTFDS,Ctrl,14 nM,6/6
GFGIDEYGIS,VIYADGRRTFYSDDVK,GNMIVTFVD,En_Gibbs,1.0 nM,6/6

Empty control strains, which show no peptide, gave a signal in 1% of pairings with all heavy chain designs; the median was 120 nM and 95% of these signals were weaker than 7.0 nM. No background was subtracted.
A sequence that the file lists under several names has all its replicates pooled.
A sequence measured in both rounds can read differently, since the two assays cover different ranges.
In the paper, a design with two or fewer of six values counts as a poor binder.

Data: MIT Lincoln Laboratory AlphaSeq set, Li et al. 2023, doi:10.1038/s41467-023-39022-2, as distributed in FLAb.